Assay results reported in US11760795B2, “Monoclonal antibodies to growth and differentiation factor 15 (GDF-15), and uses thereof for treating cancer cachexia and cancer” (JULIUS-MAXIMILIANS-UNIVERSITÄT WÜRZBURG, priority 2014, dated 2023).

Target: T1, human GDF-15 (Homo sapiens, UniProt Q99988)
T1 sequence (Q99988 with tags, fused parts or gaps limits assumed): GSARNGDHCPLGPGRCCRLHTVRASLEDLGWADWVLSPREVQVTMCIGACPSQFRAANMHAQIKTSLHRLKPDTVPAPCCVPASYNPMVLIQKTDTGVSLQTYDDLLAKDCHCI
Assay: Kd determination by Surface Acoustic Wave (SAW) gold chip biosensors
Type: binding
Conditions: murine B1-23 stabilized with 0.2% BSA, H1L5 as CHO supernatant
Description: Determination of Kd values of anti-GDF-15 antibodies. The Kd values of different anti-GDF-15 antibodies were compared using Surface Acoustic Wave (SAW) gold chip biosensors technology (SAW Instruments GmbH, Schwertberger Str. 16, D-53177 Bonn, Germany):
The murine antibody (B1-23) as well as the chimeric B1-23 antibody were present in purified form. The H1L5 humanized B1-23 antibody was a serum-free CHO cell culture supernatant.

Kd value (nM): No binding
Substance: Herceptin: control antibody in SAW Kd assay
